Chains of the proteins cited; added tags and fusions are not shown. Lines headed by an entry give the natural chain unless they say otherwise; changes in a name come on top.
UniProt P98170, whole entry: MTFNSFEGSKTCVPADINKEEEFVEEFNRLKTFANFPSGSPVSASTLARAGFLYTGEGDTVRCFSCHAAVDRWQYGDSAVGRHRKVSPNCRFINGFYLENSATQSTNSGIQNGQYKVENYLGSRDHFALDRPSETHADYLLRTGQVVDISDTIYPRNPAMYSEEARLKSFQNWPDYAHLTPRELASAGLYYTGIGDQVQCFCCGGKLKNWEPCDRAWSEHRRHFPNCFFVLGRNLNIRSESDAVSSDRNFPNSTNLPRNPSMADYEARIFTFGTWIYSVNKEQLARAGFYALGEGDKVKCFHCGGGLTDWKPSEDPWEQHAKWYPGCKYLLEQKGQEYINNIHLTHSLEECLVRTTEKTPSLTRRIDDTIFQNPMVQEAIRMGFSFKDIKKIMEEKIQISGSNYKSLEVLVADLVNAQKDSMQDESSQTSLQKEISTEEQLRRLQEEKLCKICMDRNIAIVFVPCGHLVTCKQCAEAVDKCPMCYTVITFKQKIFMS
UniProt P05187: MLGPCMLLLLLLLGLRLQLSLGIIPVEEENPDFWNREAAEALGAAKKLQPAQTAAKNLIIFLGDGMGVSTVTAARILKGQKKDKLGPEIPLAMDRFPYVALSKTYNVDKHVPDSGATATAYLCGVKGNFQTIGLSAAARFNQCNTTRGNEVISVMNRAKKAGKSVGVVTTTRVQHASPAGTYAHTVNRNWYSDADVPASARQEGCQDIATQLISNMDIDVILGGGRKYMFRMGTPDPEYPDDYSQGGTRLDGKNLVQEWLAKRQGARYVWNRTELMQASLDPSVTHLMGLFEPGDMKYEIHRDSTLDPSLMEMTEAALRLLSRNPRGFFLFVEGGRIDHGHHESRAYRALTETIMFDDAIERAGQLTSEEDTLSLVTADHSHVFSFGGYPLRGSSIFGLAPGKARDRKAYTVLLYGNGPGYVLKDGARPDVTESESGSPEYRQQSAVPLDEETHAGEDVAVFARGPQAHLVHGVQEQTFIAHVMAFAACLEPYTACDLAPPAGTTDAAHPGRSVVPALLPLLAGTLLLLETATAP

According to ChEMBL document CHEMBL1201862, “PubChem BioAssay data set” (2004):

Legend:
[1] = IC50 of Artemis nuclease activity blockers – biochemical, fluorescence intensity, dose response (AID 720701); type: functional;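 note: Artemis endonuclease enzyme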
[2] = target: T1, E3 ubiquitin-protein ligase XIAP (Homo sapiens, UniProt P98170); test: SAR analysis of Antagonists of IAP-family anti-apoptotic proteins. [Related pubchem assays (depositor defined):AID1018, AID1449, AID1513, AID1514, AID1638]
[3] = target: T1, E3 ubiquitin-protein ligase XIAP; test: SAR analysis of Antagonists of XIAP-Bir3 domain of IAP-family anti-apoptotic proteins. [Related pubchem assays (depositor defined):AID1018, AID1449, AID1513, AID1514, AID1638]
[4] = target: T2, Protein phosphatase methylesterase 1 (Homo sapiens, UniProt Q9Y570); test: endogenous PME-1 and serine hydrolase inhibition – cell lysate, mouse brain cytosol, FP-rhodamine, gel ABPP, selectivity assay for PME-1 inhibitor project, dose response, panel member PME-1 Assay Panel member description: Inhibition of endogenously expressed PME-1 (AID 2366)
T2 sequence (Q9Y570 whole entry): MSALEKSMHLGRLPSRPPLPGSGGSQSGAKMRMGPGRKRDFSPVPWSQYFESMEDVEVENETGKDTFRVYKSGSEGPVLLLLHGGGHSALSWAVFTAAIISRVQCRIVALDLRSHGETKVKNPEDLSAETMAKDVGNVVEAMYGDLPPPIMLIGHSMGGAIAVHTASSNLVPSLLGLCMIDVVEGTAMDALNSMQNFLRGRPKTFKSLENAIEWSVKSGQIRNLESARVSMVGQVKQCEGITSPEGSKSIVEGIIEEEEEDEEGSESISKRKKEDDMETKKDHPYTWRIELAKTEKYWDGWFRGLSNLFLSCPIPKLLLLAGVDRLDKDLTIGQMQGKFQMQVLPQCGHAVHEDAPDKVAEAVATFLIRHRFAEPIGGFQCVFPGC

[5] = target: Alkaline phosphatase, placental type (Homo sapiens, UniProt P05187); test: human placental alkaline phosphatase inhibition – biochemical, luminescence, confirmation (AID 1512); type: functional

## Nc1nn2c(O)c3c(nc2c1N=Nc1ccccc1)CCCC3
[1]
  IC50: inactive: > 20 µM

## CN[C@@H](C)C(=O)N[C@H](C(=O)N1CCC[C@H]1C(=O)N[C@H]1CCCc2ccccc21)C(C)C
[2]
  IC50: active: 9.5 µM
[3]
  IC50: active: 3.7 µM

## N#C/C(=C\c1cccn1S(=O)(=O)c1cccc([N+](=O)[O-])c1)S(=O)(=O)c1ccc(F)cc1
[4]
  IC50: active: 0.5 µM

## Cc1cc(C)nc(SCC(=O)c2ccc(O)c(O)c2)n1
[5]
  IC50: active: 1.21 µM

## Cn1c(SCC(=O)c2ccc(O)c(O)c2)nnc1-c1ccccc1
[5]
  IC50: active: 4.73 µM

Calls of active or inactive are those of the source.
